# Measured affinities in a library of Ab-14 light chain variants

Data: MIT Lincoln Laboratory AlphaSeq set, Li et al. 2023, doi:10.1038/s41467-023-39022-2, as distributed in FLAb.

Binding partner: SARS-CoV-2 spike HR2 peptide, sequence PDVDLGDISGINAS.

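The parent was found by panning a naive human phage display library on the peptide. This is the validation round: designs drawn from the data on random variants, tested in the same kind of assay. Group labels follow the data file (Ctrl: baseline library sampled from a position-specific scoring matrix, with some repeated check sequences; GP: Gaussian process model; HC: hill climbing; Gen: genetic algorithm; Gibbs: Gibbs sampling; a sequence that several methods proposed may carry one label only). Affinity was read by AlphaSeq, a pooled yeast mating assay with surface-displayed partners. Binding brings cells together so that they mate, and sequencing counts the barcode pairs among the diploids. Read counts were normalised to the haploid input and turned into Kd by a linear fit to BCL2-family pairs of known affinity, for each replicate. There are six technical replicates.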

Ab-14 is the parent antibody, in scFv form: VH, then a 15-residue (Gly4Ser)3 linker, then VL. The heavy chain is unchanged in all variants.
VH: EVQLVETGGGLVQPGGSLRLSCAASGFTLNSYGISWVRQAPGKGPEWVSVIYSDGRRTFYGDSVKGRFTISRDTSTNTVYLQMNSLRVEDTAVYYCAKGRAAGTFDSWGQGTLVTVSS
VL: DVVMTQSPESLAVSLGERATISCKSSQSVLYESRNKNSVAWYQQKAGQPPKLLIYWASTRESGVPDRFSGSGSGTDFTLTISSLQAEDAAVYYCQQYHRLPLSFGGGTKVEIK

Positions count from residue 1 of the parent VL; S25M puts M in place of S.
Variants here have at most six changes.
Kd is apparent (estimated from mating counts) and averaged on the log scale over replicates with a signal. Smaller is tighter.
"no signal" marks a missing value. The strain was present, yet no cells mated with the target were sequenced in any replicate, which points to weak or no binding.
The parent sequence was in this pool as ten entries: three were never detected, three once, and four in most replicates, with averages from 2.2 nM to 240 nM.
In the paper, a design with two or fewer of six values counts as a poor binder.
Empty control strains, which show no peptide, gave a signal in 4% of pairings with all light chain designs; the median was 430 nM and 95% of these signals were weaker than 38 nM. No background was subtracted.
A sequence measured in both rounds can read differently, since the two assays cover different ranges.

With S25M+Q27G+W56R [Ctrl] the result was 5.8 nM (6 of 6 replicates).
With K24F+Q27I+W56T+E61A+S103L [Ctrl] the result was 39 nM (1 of 6 replicates).
With S28G+R34E [Ctrl] the result was 79 nM (6 of 6 replicates).
With S25V+V29W+Y31M+W56N+E61Q [GP_HC] the result was 600 pM (6 of 6 replicates).
With E32N+N35A [Ctrl] the result was 310 nM (6 of 6 replicates).
With S25V+V29K+L30E+N35Q+W56N+S62L [GP_Gibbs] the result was 770 nM (5 of 6 replicates).
With S28V+V29Y+W56D [GP_HC] the result was 3.5 nM (6 of 6 replicates).
With S25V+S26P+L30P+W56E [GP_Gen] the result was 530 pM (6 of 6 replicates).
With V29Q+E32A+T59Y [Ctrl] the result was no signal (0 of 6 replicates).
With S25Q+V29W+S33D+N35V+W56G [GP_HC] the result was 1.7 nM (6 of 6 replicates).
With S25Q+V29W+Y31M+W56E+E61Q [GP_HC] the result was 1.1 nM (6 of 6 replicates).
With S25L+S26M+S38A+W56N+T59Q [GP_Gen] the result was 1.1 nM (6 of 6 replicates).
With V29E+Y31M+W56D+H98W [GP_HC] the result was 560 pM (6 of 6 replicates).
With S25L+V29D+W56E+E61C [GP_Gen] the result was 730 pM (6 of 6 replicates).
With S25I+S26Q+W56N+E61L [GP_Gen] the result was 860 pM (6 of 6 replicates).
With L30M+Y31N+W56D [GP_HC] the result was 1.7 nM (6 of 6 replicates).
With S25L+S26Q+V29T+K36Q [GP_HC] the result was 6.1 nM (6 of 6 replicates).
With K24M+Q27K+W56G [Ctrl] the result was 3.4 nM (6 of 6 replicates).
With S25L+S26P+Q27N+V29T [GP_HC] the result was 9.5 nM (5 of 6 replicates).
With S25Q+S33W+W56N [GP_HC] the result was 750 pM (6 of 6 replicates).
With S25I+S26L+N35D+W56H+S62D [GP_HC] the result was 930 pM (6 of 6 replicates).
With R34C+S58M [Ctrl] the result was no signal (0 of 6 replicates).
With L30G+S62V+H98A+S103F [Ctrl] the result was 34 nM (6 of 6 replicates).
With S25L+V29E+W56N+E61M+Q96D [GP_Gen] the result was 720 pM (6 of 6 replicates).
With S25F+N35T+K36Q+W56N+Q96C [GP_HC] the result was 2.8 nM (6 of 6 replicates).
With S33L+K36A+W56R [Ctrl] the result was 80 nM (6 of 6 replicates).
With S25I+V29F+W56G+Q96E [GP_HC] the result was 1.2 nM (6 of 6 replicates).
With S25V+V29F+W56H [GP_Gen] the result was 780 pM (6 of 6 replicates).
With K24V+S25L+W56G [GP_Gen] the result was 2.4 nM (6 of 6 replicates).
With S25L+V29W+S38A+W56N+S62D [GP_Gen] the result was 340 pM (6 of 6 replicates).
With K24H+S25L+W56N+S62W [GP_Gen] the result was 1.3 nM (6 of 6 replicates).
With S26L+V29Q+N35D+W56H+S62D [GP_HC] the result was 1.0 nM (6 of 6 replicates).